In general, IC50 refers to the concentration at which inhibition is half-maximal.

The subject of assay [1] is melanoma and renal carcinoma. The note with it: patients with melanoma and renal carcinoma; cited from earlier work.
Assay [2] deals with resting CD8 T-cells, resting CD4 T-cells, and resting Treg (CD25hi CD127lo) cells. The assay can be described thus: pSTAT5 activation in resting human T-cell populations by flow cytometry. Type of assay: cell-based. To be noted: 30 min. Here is the method: pSTAT5 activation of resting CD8 T-cells, resting CD4 T-cells, and resting Treg (CD25hi CD127lo) cells by the heterodimer of Example 14 was determined using the method described in Example 17.
The incubation time was 30 min and pSTAT5 was measured by flow cytometry.

For assay [3], the system named is NK-92 cells. As to the kind of experiment: STAT5 phosphorylation in NK-92 cells. The note with it: Western Blot, Anti-hIL-2 IgG added to all samples. Type of assay: cell-based, human. As to the method: NK-92 cells were seeded in a 24-well plate at 4×10^5 cells, in 1 mL starvation medium (SM), and incubated overnight at 37° C., 5% CO2. The starvation medium contained RPMI 1640+20% FBS+2 mM L-glutamine+1 mM NaPyr+10 mM HEPES+0.1 mM BME (no rhIL-2 supplement).
Treatment mixtures were of 1 pg/mL Anti-hIL-2 neutralizing antibody (0.2 mg/mL stock) or goat IgG control (1 mg/mL stock) were prepared.
The treatment mixtures and the antibody mix were added to the cells for 30 min at 37° C., 5% CO2. Each sample was then transferred to a 1.5 mL microfuge tube and spun down at 1,500 RPM for 5 minutes. The cells were washed in 1 mL PBS and centrifuged again.
A phosphatase and protease inhibitor cocktail (Thermo #78442) were added to mPER buffer at a 1:100 dilution. After the cells were pelleted, 50 μL of mPER buffer was added to each sample and pipetted repeatedly to homogenize.
The lysates were centrifuged at 14,000 RPM for 5 min at RT. The supernatants were transferred to clean tubes and stored frozen at −80° C. […]
The heterodimer of Example 14 was incubated with NK92 cells and TF-1β cells and the STAT5 phosphorylation measured as a function of concentration using the methods described in Examples 7 and 8.
On the technique in general: A western blot detects proteins with antibodies after separation by electrophoresis.

The subject of assay [4] is IL-2Rβγc subunits. The note with it: DiscoverX product specifications; read-out: IC50 of β-Gal activity; cited from earlier work.

Take “IL-2: Recombinant human Interleukin-2 (IL-2), natural cytokine and positive control”: the “durable responses in patients” value in assay [1] is listed as “up to 10%”. The “potency of pSTAT5 activation in the different human T-cell populations” value in assay [2] is “potency bias for Treg and CD4 T-cells”. For the same substance, the “STAT5 phosphorylation with IL-2 neutralizing antibody added” value in assay [3] is listed as “suppressed”. In assay [4], the IC50 was around 26 nM.

Values taken from patent publication US11358986B2, “IL-2RBETA binding compounds” (MEDIKINE, INC., priority 2018, dated 2022).
